Compound activity as filed in PubChem.
FGF22 binding: binders of human FGF22 protein, primary screen, FGF22 synaptogenesis inhibitor project, biophysical, thermal shift, single point; recombinant FGF22 thermal shift, SYPRO orange fluorescence; percent of sucrose octasulfate shift, DMSO zero; activity (Tm shift, normalised), % at 9.99 µM; actives 1.5% (n = 340,000); AID 651658, 2012;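 active = mean Tm shift, scaled 0 neutral to 100 positive control, at about 1.3% or above, every replicate too, limit read from the data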
ERp5 inh: inhibitors of ERp5-driven insulin aggregation, primary screen, biochemical, turbidity, absorbance 650 nm, single point. Protein disulfide-isomerase A6 (Homo sapiens), Q15084. 90 min. inhibition, % at 9.99 µM. actives 0.05% (n = 350,000). AID 651711, 2012;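 active = mean replicate inhibition above about 25%, with every replicate also reaching it, limit read from the data, passing the limit was not always enough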
Yeast UUG start: yeast start codon fidelity modulation | S. cerevisiae UUG-firefly luciferase reporter, luminescence/redox ratio | activity score, % at 18.7 µM | hit rate 0.13% among 350,000 | AID 602363;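 active means replicate mean at a twofold rise or more, about +100% in these data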;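 further: firefly luciferase made from a UUG start codon reports start codon fidelity; reporter light over untreated wells divided by growth signal over untreated wells; some hits fall short of that in this replicate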
PglD DTNB: C. jejuni PglD acetyltransferase inhibitors, primary screen, biochemical, DTNB colorimetric, single point; inhibition, % at 12.5 µM; purified PglD enzyme, DTNB colorimetric CoA detection; actives 0.098% (n = 360,000); UDP-N-acetylbacillosamine N-acetyltransferase PglD (Campylobacter jejuni); in the data active = inhibition above about 16%, passing the limit was not always enough
PDI inh: inhibitors of human PDI, primary screen, biochemical, turbidity, single point, plate reader | PDI insulin aggregation turbidity, A650, 90 min | inhibition, % at 10 µM | actives 0.052% (n = 350,000) | AID 588391, 2011;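 active = mean inhibition across replicates of 30% or more, whatever share of single replicates reach that level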
ARNT TACC3 PPI: disruptors of ARNT/TACC3 protein interaction, primary screen, biochemical, AlphaScreen, single concentration | inhibition, % at 9.99 µM | actives 0.66% (n = 390,000) | Transforming acidic coiled-coil-containing protein 3 (Homo sapiens), Q9Y6A5 | AlphaScreen His-ARNT PAS-B/GST-TACC3 binding, luminescence; TACC3 fragment carries E629A point mutation | AID 623870, 2012;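 active = mean inhibition of replicates at least 50% and at least half of replicates each reaching 50%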;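 also: 0% = complete ARNT plus TACC3 wells and 100% = ARNT alone without TACC3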
The depositor's hits bear a star; · = no result given. In the library only some 1.9% were active in any assay of this set; here they are far more common.

1: O=C(N/C(=C/c1ccccc1)C(=O)N1CCOCC1)c1ccc([N+](=O)[O-])cc1
2: O=C(N/C(=C/c1cccnc1)C(=O)N1CCCCCC1)c1ccccc1
3: O=C(N/C(=C/c1cccnc1)C(=O)N1CCOCC1)c1ccccc1
4: O=C(N/C(=C/c1cccs1)C(=O)N1CCOCC1)c1ccccc1
5: O=C([C@H]1N[C@H]2c3ccc(-c4ccc(F)cc4)c(=O)n3C[C@H]2[C@@H]1CO)N1CCOCC1
6: O=C(COC(=O)c1cn(-c2ccccc2)nc1-c1ccc(F)cc1)Nc1ncc(Cl)cc1Cl

compound no.	1	2	3	4	5	6
FGF22 binding	0	0	43*	44*	0	44*
ERp5 inh	3	-1	-5	5	5	-3
Yeast UUG start	-16	-10	·	·	·	·
PglD DTNB	-2	-6	·	·	0	·
PDI inh	-11	3	-4	-4	·	2
ARNT TACC3 PPI	·	-3	·	-11	-7	-4

7: NS(=O)(=O)c1ccc(NC(=O)COC(=O)c2cn(-c3ccccc3)nc2-c2ccc(F)cc2)cc1
8: CCC(C(=O)Nc1cc(Cl)ccc1OC)c1ccccc1 (stereo not given)
9: COc1ccc(Cl)cc1NC(=O)C(OC)c1ccccc1 (stereo not given)
10: COC(=O)CN1CC(=O)N(c2ccccc2)C1=S
11: O=C1CCc2cc(S(=O)(=O)NCc3ccccc3Cl)cc3c2N1CC3
12: O=C(N[C@H]1C=C[C@H](CC(=O)N2CCOCC2)O[C@@H]1CO)c1cccc(F)c1

compound no.	7	8	9	10	11	12
FGF22 binding	·	43*	0	43*	0	0
ERp5 inh	·	-3	-3	-5	29*	2
Yeast UUG start	·	·	-6	1	-12	-6
PglD DTNB	·	·	-3	-3	-11	-1
PDI inh	1	-3	0	4	6	·
ARNT TACC3 PPI	-3	-7	1	-5	1	5

13: Cc1cccc(C(=O)NNS(=O)(=O)c2ccccc2)c1O
14: COc1ccc(S(=O)(=O)NNC(=O)c2ccccc2-n2cccc2)cc1
15: CO[C@H]1CN(C)C(=O)c2cc(NC(=O)C3CC3)ccc2OC[C@H](C)N(C(=O)NC(C)C)C[C@@H]1C
16: CN(C)C(=O)c1cccc(-c2ccccc2[C@H]2[C@@H](C#N)N(C(=O)C3CC3)[C@@H]2CO)c1
17: COc1ccc(-c2nc(S(=O)(=O)c3ccccc3)c(N3CCN(C)CC3)o2)cc1
18: COc1ccc(NC(=S)NC23CN4CN(CN(C4)C2)C3)c(OC)c1

compound no.	13	14	15	16	17	18
FGF22 binding	43*	43*	0	0	46*	44*
ERp5 inh	7	-2	-4	0	-9	2
Yeast UUG start	·	-9	·	·	-13	·
PglD DTNB	·	1	1	·	0	·
PDI inh	7	13	·	·	-5	-1
ARNT TACC3 PPI	-4	·	1	·	·	20

19: O=C(C[C@H]1CC[C@H]2[C@@H](COC[C@@H](O)CN2Cc2cccc(-c3ccncc3)c2)O1)N1CCOCC1
20: Cc1cccc(C(=O)OCC(=O)N2c3ccccc3CC2C)c1C (stereo not given)
21: Cc1nc2sc(C(=O)OCC(=O)N3c4ccccc4CC3C)c(C)c2c(=O)[nH]1 (stereo not given)
22: O=S(=O)(NC(CO)Cc1ccccc1)c1ccc(Br)cc1F (stereo not given)
23: S=C(NCc1ccccn1)Nc1ccccc1
24: Fc1ccc(NC(=S)NCCc2ccccn2)cc1

compound no.	19	20	21	22	23	24
FGF22 binding	0	0	43*	43*	44*	44*
ERp5 inh	-2	2	1	-1	-3	-6
Yeast UUG start	·	9	·	-15	-2	·
PglD DTNB	-2	-2	·	-1	4	·
PDI inh	·	1	-6	-1	-14	-12
ARNT TACC3 PPI	-8	·	-10	-1	·	·

25: C[C@@H]1CN([C@@H](C)CO)C(=O)c2cc(NS(=O)(=O)c3ccc(F)cc3)ccc2O[C@H]1CN(C)S(C)(=O)=O
26: O=C(NCCCN1CCCC1)c1ccc(CS(=O)(=O)c2c(Cl)cccc2Cl)o1
27: O=C(Nc1cc(C(F)(F)F)ccc1N1CCCCC1)C1=COCCO1
28: O=C(Nc1ccccc1N1CCCCC1)C1=COCCO1
29: C[C@@H]1CN([C@@H](C)CO)C(=O)Cc2cc(NC(=O)Cn3cnnn3)ccc2O[C@H]1CN(C)Cc1ccc(C(=O)Nc2ccccc2N)cc1
30: CC=Cc1ccc2n(c1=O)C[C@H]1[C@H](CO)[C@@H](C(=O)NCCc3ccncc3)[C@@H]2N1Cc1ccncc1 (mixture of isomers)

compound no.	25	26	27	28	29	30
FGF22 binding	·	0	1.9*	0	·	0
ERp5 inh	·	26*	4	·	14	-5
Yeast UUG start	-1	-2	-1	-4	·	·
PglD DTNB	·	-6	7	1	·	-3
PDI inh	·	-6	-65	-9	·	·
ARNT TACC3 PPI	·	-7	·	-1	·	0

31: CC(C)C#Cc1cnc2c(c1)C(=O)N([C@@H](C)CO)C[C@H](C)[C@@H](CN(C)Cc1cncnc1)O2
32: O=C(Cc1ccccc1)N1CCN(C(=O)c2ccc([N+](=O)[O-])cc2)CC1
33: Cc1sc(NC(=O)c2ccco2)c(CN2CCN(c3ccc(F)cc3)CC2)c1C
34: CCOC(=O)N1CCN(Cc2c(NC(=O)c3ccco3)sc(C)c2C)CC1
35: C[C@@H]1CN([C@@H](C)CO)C(=O)c2cc(NC(=O)C3CCCCC3)ccc2O[C@@H](C)CCCCO[C@@H]1CN(C)C(=O)Nc1ccc2c(c1)OCO2
36: COc1ccc(NS(=O)(=O)c2ccc(OCC(=O)N3CCOCC3)cc2)cc1

compound no.	31	32	33	34	35	36
FGF22 binding	0	45*	·	44*	1	·
ERp5 inh	8	-4	-3	-8	0	·
Yeast UUG start	·	·	-8	·	-1	-7
PglD DTNB	-4	·	-4	·	-3	1
PDI inh	·	1	-14	-4	·	5
ARNT TACC3 PPI	-3	1	-6	-8	-3	-2

Reformatted with tabs: entries from further up.
cpd	molecule	FGF22 binding	ERp5 inh	Yeast UUG start	PglD DTNB	PDI inh	ARNT TACC3 PPI
31	CC(C)C#Cc1cnc2c(c1)C(=O)N([C@@H](C)CO)C[C@H](C)[C@@H](CN(C)Cc1cncnc1)O2	0	8	·	-4	·	-3
32	O=C(Cc1ccccc1)N1CCN(C(=O)c2ccc([N+](=O)[O-])cc2)CC1	45*	-4	·	·	1	1
33	Cc1sc(NC(=O)c2ccco2)c(CN2CCN(c3ccc(F)cc3)CC2)c1C	·	-3	-8	-4	-14	-6
34	CCOC(=O)N1CCN(Cc2c(NC(=O)c3ccco3)sc(C)c2C)CC1	44*	-8	·	·	-4	-8

(next part)
37: CSc1ccc(S(=O)(=O)Nc2ccc(OCC(=O)N3CCOCC3)cc2)cc1
38: COc1ccc(NC(=O)c2c(NC(=O)CNCc3ccco3)sc3c2CCC3)cc1
39: CCOc1ccccc1NC(=O)c1c(NC(=O)CCC(=O)O)sc2c1CCCCC2
40: CCOC(=O)c1ccc(NC(=O)c2c(NC(=O)CCC(=O)O)sc3c2CCCCC3)cc1
41: CCOc1ccc(NC(=O)c2c(NC(=O)CNCCN3CCOCC3)sc3c2CCC3)cc1
42: CC(C)Cn1cnc2c1c(=O)n(CC(=O)N(C)C)c(=O)n2Cc1ccccc1
43: COc1cccc(CN2CC3(CN(CC4CC4)C3)c3c([nH]c4cc(OC)ccc34)[C@H]2CO)c1
44: CC(C)(C)c1ccc(OCCCC(=O)Nc2ccc(S(N)(=O)=O)cc2)cc1

compound no.	37	38	39	40	41	42	43	44
FGF22 binding	43*	·	0	44*	0	44*	0	44*
ERp5 inh	-4	·	5	2	3	11	-2	0
Yeast UUG start	·	-12	·	·	-18	·	·	-21
PglD DTNB	·	1	·	·	0	·	·	·
PDI inh	0	-3	-4	1	7	-1	·	-10
ARNT TACC3 PPI	2	-9	8	10	64*	-19	·	-5
